What was measured:
[1] = Permanent wave evaluation of waving lotions on hair tresses (waving efficiency); conditions: amine 0.75M with 13.2 wt. % (0.8M) GMT, pH 7.5; 37° C. for 20 minutes
Excerpt: The pH was adjusted using a 10 wt. % HCl solution. Tresses were rolled onto mandrels and evaluated using the permanent wave evaluation procedure that follows. Procedure for Permanent Wave Evaluation […] 1. A bundle of 16 inch long medium virgin brown hair was secured with beeswax by dipping approximately 2 inches of the root end of the bundled hair into melted wax for 5 seconds. When the wax is cool to the touch, it is shaped into a square and allowed to harden. 2. Hair is broken into smaller bundles, washed with a 10 wt. % sodium lauryl sulfate solution and then rinsed. 3. Hair is sectioned into tresses of 45 hairs and the waxed end is re-waxed to further secure the tress. The wax is allowed to dry, and a piece of tape is wrapped around it to provide a writing surface. […] 4. An 8 cm long, 1.25 cm diameter spiral rod with 25 turns is used. The waxed end of the hair is secured between the 9th and 10th turns using a rubber band. […] 5. A piece of tape, width 2.5 cm, is wrapped sideways around the bottom edge of the hair, covering the bottom 2.5 cm. […] Waving Efficiency After the procedure, the lengths of the tresses were measured in a water bath. […] The curl is measured from the end of the wax to the end of the curl. [formula] where Li=initial length of tress from wax end to tip Lo=length of tress when wrapped on the rod Lt=length of permed hair from wax end to tip, measured in the water

[2] = cited from earlier work

Compound: NC(CO)(CO)CO [Tris, tris(hydroxymethyl)amino methane]
- Percent Waving Efficiency [1]: 47.0%
- pKa [2]: about 8.06
